Literature values in patent US9132083B2, “Delivery system comprising a silicon-containing material” (SISAF Ltd., priority 2009, dated 2015).

How the values were obtained:
[1] = for Amount of OSA production (Theoretical value): theoretical limit without stabiliser, corresponds to 10^-4 M OSA

orthosilicic acid
OSA concentration over which polymerisation proceeds rapidly ([1]; absence of a stabiliser): 10^−4 M | concentration limit of a pure solution containing only silicic acid (above it PolySA species form) ([1]; no stabiliser): around 10^−4 Mol·L^−1 | Amount of OSA production (Theoretical value) [1]: 0.48 mg/50 ml | Amount of OSA production (Theoretical value) ([1]; starting silicon 2.9 mg/L): 9.6 mg/L | pKa: around 9.8 | pKa1 (25° C.): 9.84 | pKa2 (25° C.): 13.2

Where two headings read alike, the source gives them in different places.
